Boiling point values, as collected for the OPERA models

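The OPERA project collected these measurements from public sources as training and test data for property models. A listed value is a point estimate from one report or more. Method, purity and exact conditions of the single measurements are not given. A value may pool stereoisomers or salt forms, and the file does not say which form was measured. Unmarked limits or estimates from the upstream databases cannot be ruled out.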

The boiling point refers to atmospheric pressure (760 mmHg), by the definition of the set.
"n/a" marks a cell with nothing listed here.

compound	name	BP (°C)
O=C1OC(C(Cl)(Cl)Cl)OC1C(Cl)(Cl)Cl (stereo not given)	2,5-Bis(trichloromethyl)-1,3-dioxolan-4-one	272
C1=CCCCC=CC1	1,4-Cyclooctadiene	145
FC(F)C(F)(OB(OC(F)(C(F)F)C(F)(F)F)OC(F)(C(F)F)C(F)(F)F)C(F)(F)F (stereo not given)	Tris(1,1,1,2,3,3-hexafluoropropan-2-yl) borate	117.5
O=CC(F)(F)C(F)(F)C(F)(F)C(F)(F)C(F)(F)C(F)(F)C(F)(F)C(F)(F)F	(Perfluorooctane)-1-carbaldehydle	126
C=CC(=O)OCC1CC2C=CC1C2 (stereo not given)	2-Propenoic acid, bicyclo[2.2.1]hept-5-en-2-ylmethyl ester	104
C#CC(C)OC(C)OCC (stereo not given)	1-Butyne, 3-(1-ethoxyethoxy)-	147
COC(=O)N(OC)c1ccccc1COc1c(C)c(-c2ccccc2)nn1C	Pyrametostrobin	496
C1CCC2C(C1)CC1CCCCC12 (stereo not given)	Dodecahydro-1H-fluorene	260
CCC(CC)CN	2-Ethyl butylamine	125
N#CC(F)(F)C(F)(F)C(F)(F)C(F)(F)C(F)(F)OC(F)=C(F)F	Decafluoro-6-trifluorovinyloxyhexanenitrile	110
CC(C)(C)[C@H]1CCCC[C@H]1O (relative stereo)	n/a	213
CC(C)=CCC/C(C)=C/CC/C(C)=C/CCO	Homofarnesol	324
Clc1ccc(Oc2cccc(Cl)c2)cc1	3,4'-Dichlorodiphenyl ether	318.1
C=CC=CCl	1-Chloro-1,3-butadiene	68
CC(=O)CCCC(C)CCCC(C)C (stereo not given)	6,10-Dimethylundecan-2-one	253.5
Cc1ccc([C@@H](C)N)cc1	(+)-1-(4-Methylphenyl)ethylamine	205
Fc1c(F)c(F)c2c(c1F)C(F)(F)OC2(F)F	1,1,3,3,4,5,6,7-Octafluoro-1,3-dihydro-2-benzofuran	128.3
COCCOCc1nc(C(F)(F)F)ccc1C(=O)C1=C(O)C2CCC(C2)C1=O (stereo not given)	Bicyclopyrone	490
CC1=CC(C)CC(C)C1 (stereo not given)	1,3,5-Trimethylcyclohex-1-ene	141
CC1CCOCO1 (stereo not given)	4-Methyl-1,3-dioxane	114
Brc1cccc(C2OCCO2)c1	1,3-Dioxolane, 2-(3-bromophenyl)-	132
CCCCNCCC[Si](C)(OC)OC	N-[3-(Dimethoxymethylsilyl)propyl]-1-butanamine	238
O=C(OCC(F)(F)C(F)(F)C(F)(F)F)C(F)(F)C(F)(F)C(F)(F)F	2,2,3,3,4,4,4-Heptafluorobutyl heptafluorobutanoate	124
CC(=O)OCCC(F)(F)C(F)(F)C(F)(F)F	3,3,4,4,5,5,5-Heptafluoropentyl acetate	137.2
FC(F)C(F)(Cl)Cl	1,1-dichloro-1,2,2-trifluoroethane	30.2
FC(F)(F)OC(F)(CC1CO1)C(F)(F)F (stereo not given)	[2,3,3,3-Tetrafluoro-2-(trifluoromethoxy)propyl]oxirane	108
C[Si](C)(C)O[Si](C)(C(F)(F)C(F)(F)C(F)(F)CCC(F)(F)F)C(F)(F)C(F)(F)C(F)(F)CCC(F)(F)F	n/a	150
FC(c1ccccc1)C(F)(F)F (stereo not given)	(1,2,2,2-Tetrafluoroethyl)benzene	128.5
CCCC(C)CCCO (stereo not given)	4-Methyl-1-heptanol	188
COc1ccc(C(CCCc2ccccc2)N(C)C)cc1OC (stereo not given)	1-(3,4-Dimethoxyphenyl)-N,N-dimethyl-4-phenylbutan-1-amine	167

The first 5 entries again:

compound	name	BP (°C)
O=C1OC(C(Cl)(Cl)Cl)OC1C(Cl)(Cl)Cl (stereo not given)	2,5-Bis(trichloromethyl)-1,3-dioxolan-4-one	272
C1=CCCCC=CC1	1,4-Cyclooctadiene	145
FC(F)C(F)(OB(OC(F)(C(F)F)C(F)(F)F)OC(F)(C(F)F)C(F)(F)F)C(F)(F)F (stereo not given)	Tris(1,1,1,2,3,3-hexafluoropropan-2-yl) borate	117.5
O=CC(F)(F)C(F)(F)C(F)(F)C(F)(F)C(F)(F)C(F)(F)C(F)(F)C(F)(F)F	(Perfluorooctane)-1-carbaldehydle	126
C=CC(=O)OCC1CC2C=CC1C2 (stereo not given)	2-Propenoic acid, bicyclo[2.2.1]hept-5-en-2-ylmethyl ester	104

Values as listed in the OPERA 2.9 repository of K. Mansouri.